Results on 13 compounds are retold here after US20240360179A1, “STAPLED PEPTIDES AND METHODS THEREOF” (FOG PHARMACEUTICALS, INC., priority 2021, published 2024).

Chains of the proteins cited; added tags and fusions are not shown.
UniProt P35222, whole entry: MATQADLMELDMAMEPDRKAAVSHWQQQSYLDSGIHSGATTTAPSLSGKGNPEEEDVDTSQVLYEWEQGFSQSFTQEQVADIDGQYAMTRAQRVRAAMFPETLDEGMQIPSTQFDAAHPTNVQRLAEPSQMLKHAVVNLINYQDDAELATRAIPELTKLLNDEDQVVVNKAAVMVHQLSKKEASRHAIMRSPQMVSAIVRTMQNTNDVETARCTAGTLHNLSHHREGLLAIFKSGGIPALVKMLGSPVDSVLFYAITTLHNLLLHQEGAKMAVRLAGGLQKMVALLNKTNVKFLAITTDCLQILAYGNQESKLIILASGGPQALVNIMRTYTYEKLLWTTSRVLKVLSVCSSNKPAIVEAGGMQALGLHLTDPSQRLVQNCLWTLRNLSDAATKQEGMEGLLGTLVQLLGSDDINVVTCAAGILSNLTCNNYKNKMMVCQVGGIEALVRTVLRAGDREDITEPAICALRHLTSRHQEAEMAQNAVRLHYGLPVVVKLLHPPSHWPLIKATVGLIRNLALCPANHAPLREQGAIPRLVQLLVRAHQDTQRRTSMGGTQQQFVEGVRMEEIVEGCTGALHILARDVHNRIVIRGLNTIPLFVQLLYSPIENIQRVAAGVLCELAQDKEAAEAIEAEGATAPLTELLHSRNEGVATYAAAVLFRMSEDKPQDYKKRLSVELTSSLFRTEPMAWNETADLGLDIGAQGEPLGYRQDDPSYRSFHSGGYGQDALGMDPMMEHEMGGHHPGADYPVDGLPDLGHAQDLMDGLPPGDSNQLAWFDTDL

Experiment [1] has as its target T1, full-length B-Catenin (Uniprot ID P35222) (Homo sapiens, UniProt P35222).
T1 construct: 10 nM full-length B-Catenin (Uniprot ID P35222)
Nature of the experiment: biochemical. In kind it is binding. Particulars: beta-Catenin FP IC50 (nM), competition fluorescence polarization.

The target of experiment [2] is beta-catenin/TCF4 interaction (Homo sapiens, UniProt P35222). The experiment can be described thus: cell-based. Particulars: NanoBRET Abs IC50 (uM), absolute IC50. Further details: host or cells: HEK293.

On to `CC(=O)N1CCC[C@]12CC=CCCCC1(CCCC=CCCCOC(=O)N3CC[C@@]4(C3)NC(=O)[C@H](CCCCNC(=O)CC[C@@H](C(=O)N[C@@H](C)C(N)=O)NC(=O)[C@H](Cc3csc5ccccc35)NC(=O)[C@H](Cc3ccsc3)NC4=O)NC(=O)[C@H](Cc3ccccc3)NC(=O)C3(CC3)NC(=O)[C@H](C)NC(=O)[C@H](Cc3cccc(C(=O)O)c3)NC(=O)[C@H](CC(=O)O)NC1=O)NC(=O)[C@H](CC(C)(C)C)NC(=O)[C@H](CC(=O)O)NC2=O` (relative stereo) [I-443, Ac-PL3-Asp-Npg-B5-Asp-3COOHF-Ala-Cpg-Phe-Lys*3-PyrS2-3Thi-BztA-GlnR*3-Ala-NH2], for which the IC50 in experiment [1] was below 50 nM; in experiment [2] it was above 10 µM.
The matching figures for `CC(=O)N1CCC[C@]12CC=CCCCC1(CCCC=CCCCOC(=O)N3CC[C@@]4(C3)NC(=O)[C@H](CCCCNC(=O)CC[C@@H](C(=O)N[C@@H](C)C(N)=O)NC(=O)[C@H](Cc3csc5ccccc35)NC(=O)[C@H](Cc3ccsc3)NC4=O)NC(=O)[C@H](Cc3ccccc3)NC(=O)[C@H](CO)NC(=O)C(C)(C)NC(=O)[C@H](Cc3cccc(C(=O)O)c3)NC(=O)[C@H](CC(=O)O)NC1=O)NC(=O)[C@H](CC(C)(C)C)NC(=O)[C@H](CC(=O)O)NC2=O` (relative stereo) [I-444, Ac-PL3-Asp-Npg-B5-Asp-3COOHF-Aib-Ser-Phe-Lys*3-PyrS2-3Thi-BztA-GlnR*3-Ala-NH2]: below 50 nM and 3 to 10 µM.
The corresponding values for `CC(=O)N1CCC[C@]12CC=CCCCC1(CCCC=CCCCOC(=O)N3CC[C@@]4(C3)NC(=O)[C@H](CCCCNC(=O)CC[C@@H](C(=O)N[C@@H](C)C(N)=O)NC(=O)[C@H](Cc3csc5ccccc35)NC(=O)[C@H](Cc3ccsc3)NC4=O)NC(=O)[C@H](Cc3ccccc3)NC(=O)[C@H]([C@@H](C)O)NC(=O)C(C)(C)NC(=O)[C@H](Cc3cccc(C(=O)O)c3)NC(=O)[C@H](CC(=O)O)NC1=O)NC(=O)[C@H](CC(C)(C)C)NC(=O)[C@H](CC(=O)O)NC2=O` (relative stereo) [I-445, Ac-PL3-Asp-Npg-B5-Asp-3COOHF-Aib-Thr-Phe-Lys*3-PyrS2-3Thi-BztA-GlnR*3-Ala-NH2] are below 50 nM and 3 to 10 µM.
Turning to `CC(=O)N1CCC[C@]12CC=CCCCC1(CCCC=CCCCOC(=O)N3CC[C@@]4(C3)NC(=O)[C@H](CCCCNC(=O)CC[C@@H](C(=O)N[C@@H](C)C(N)=O)NC(=O)[C@H](Cc3csc5ccccc35)NC(=O)[C@H](Cc3ccsc3)NC4=O)NC(=O)[C@H](Cc3ccccc3)NC(=O)[C@H]([C@H](C)O)NC(=O)C(C)(C)NC(=O)[C@H](Cc3cccc(C(=O)O)c3)NC(=O)[C@H](CC(=O)O)NC1=O)NC(=O)[C@H](CC(C)(C)C)NC(=O)[C@H](CC(=O)O)NC2=O` (relative stereo) [I-446, Ac-PL3-Asp-Npg-B5-Asp-3COOHF-Aib-aThr-Phe-Lys*3-PyrS2-3Thi-BztA-GlnR*3-Ala-NH2], the IC50 in experiment [1] was below 50 nM; in experiment [2], above 10 µM.
The corresponding values for `CC(=O)N1CCC[C@]12CC=CCCCC1(CCCC=CCCCOC(=O)N3CC[C@@]4(C3)NC(=O)[C@H](CCCCNC(=O)CC[C@@H](C(=O)N[C@@H](C)C(N)=O)NC(=O)[C@H](Cc3csc5ccccc35)NC(=O)[C@H](Cc3ccsc3)NC4=O)NC(=O)[C@H](Cc3ccccc3)NC(=O)[C@H](CCC(=O)N3CCOCC3)NC(=O)C(C)(C)NC(=O)[C@H](Cc3cccc(C(=O)O)c3)NC(=O)[C@H](CC(=O)O)NC1=O)NC(=O)[C@H](CC(C)(C)C)NC(=O)[C@H](CC(=O)O)NC2=O` (relative stereo) [I-453, Ac-PL3-Asp-Npg-B5-Asp-3COOHF-Aib-MorphGln-Phe-Lys*3-PyrS2-3Thi-BztA-GlnR*3-Ala-NH2] are below 50 nM and above 10 µM.
The corresponding values for `CC(=O)N1CCC[C@]12CC=CCCCC1(CCCC=CCCCOC(=O)N3CC[C@@]4(C3)NC(=O)[C@H](CCCCNC(=O)CC[C@@H](C(=O)N[C@H](CC(C)C)C(N)=O)NC(=O)[C@H](Cc3csc5ccccc35)NC(=O)[C@H](Cc3ccsc3)NC4=O)NC(=O)[C@H](Cc3ccccc3)NC(=O)[C@H](C)NC(=O)C(C)(C)NC(=O)[C@H](Cc3cccc(C(=O)O)c3)NC(=O)[C@H](CC(=O)O)NC1=O)NC(=O)[C@H](CC(C)(C)C)NC(=O)[C@H](CC(=O)O)NC2=O` (relative stereo) [I-462, Ac-PL3-Asp-Npg-B5-Asp-3COOHF-Aib-Ala-Phe-Lys*3-PyrS2-3Thi-BztA-GlnR*3-dLeu-NH2] are below 50 nM and 3 to 10 µM.
The corresponding values for `CC(=O)N1CCC[C@]12CC=CCCCC1(CCCC=CCCCOC(=O)N3CC[C@@]4(C3)NC(=O)[C@H](CCCCNC(=O)CC[C@@H](C(=O)N[C@@H](C)C(=O)N[C@@H](CO)C(=O)N[C@@H](CC(C)C)C(N)=O)NC(=O)[C@H](Cc3csc5ccccc35)NC(=O)[C@H](Cc3ccsc3)NC4=O)NC(=O)[C@H](Cc3ccccc3)NC(=O)[C@H](C)NC(=O)C(C)(C)NC(=O)[C@H](Cc3cccc(C(=O)O)c3)NC(=O)[C@H](CC(=O)O)NC1=O)NC(=O)[C@H](CC(C)(C)C)NC(=O)[C@H](CC(=O)O)NC2=O` (relative stereo) [I-464, Ac-PL3-Asp-Npg-B5-Asp-3COOHF-Aib-Ala-Phe-Lys*3-PyrS2-3Thi-BztA-GlnR*3-Ala-Ser-Leu-NH2] are below 50 nM and 1.5 to 3 µM.
Consider `CC(=O)N1CCC[C@]12CC=CCCCC1(CCCC=CCCCOC(=O)N3CC[C@@]4(C3)NC(=O)[C@H](CCCCNC(=O)CC[C@@H](C(=O)N[C@@H](C)C(N)=O)NC(=O)[C@H](Cc3csc5ccccc35)NC(=O)[C@H](Cc3ccccc3C(F)(F)F)NC4=O)NC(=O)[C@H](Cc3ccccc3)NC(=O)[C@H](C)NC(=O)C(C)(C)NC(=O)[C@H](Cc3cccc(C(=O)O)c3)NC(=O)[C@H](CC(=O)O)NC1=O)NC(=O)[C@H](CC(C)(C)C)NC(=O)[C@H](CC(=O)O)OC2=O` (relative stereo) [I-469, Ac-PL3-OAsp-Npg-B5-Asp-3COOHF-Aib-Ala-Phe-Lys*3-PyrS2-2F3MeF-BztA-GlnR*3-Ala-NH2], for which the IC50 in experiment [1] was 50 to 200 nM; in experiment [2] it was above 10 µM.
The corresponding values for `CC(=O)N1CCC[C@]12CC=CCCCC1(CCCC=CCCCOC(=O)N3CC[C@@]4(C3)NC(=O)[C@H](CCCCNC(=O)CC[C@@H](C(=O)N[C@@H](C)C(N)=O)NC(=O)[C@H](Cc3csc5ccccc35)NC(=O)[C@H](Cc3ccsc3)NC4=O)NC(=O)[C@H](Cc3ccccc3)NC(=O)[C@H](C)NC(=O)C(C)(C)NC(=O)[C@H](Cc3cccc(C(=O)O)c3)NC(=O)[C@H](CCC(=O)O)NC1=O)NC(=O)[C@H](CC(C)(C)C)NC(=O)[C@H](CCC(=O)O)NC2=O` (relative stereo) [I-470, Ac-PL3-Glu-Npg-B5-Glu-3COOHF-Aib-Ala-Phe-Lys*3-PyrS2-3Thi-BztA-GlnR*3-Ala-NH2] are above 1000 nM and above 10 µM.
Consider `C[C@H](NC(=O)[C@@H]1CCC(=O)NCCCC[C@@H]2NC(=O)[C@H](Cc3ccccc3)NC(=O)[C@H](C)NC(=O)C(C)(C)NC(=O)[C@H](Cc3cccc(C(=O)O)c3)NC(=O)[C@H](CC(=O)O)NC(=O)[C@](C)(NC(=O)[C@@H]3CC=CCOc4ccccc4C(=O)N4CCC[C@@]4(C)C(=O)N[C@@H](CC(=O)O)C(=O)N3)CCCC=CCCCOC(=O)N3CC[C@@](C3)(NC2=O)C(=O)N[C@@H](Cc2ccsc2)C(=O)N[C@@H](Cc2csc3ccccc23)C(=O)N1)C(N)=O` (relative stereo) [I-471, BzAm20Allyl-MePro-Asp-AllylGly-R5-Asp-3COOHF-Aib-Ala-Phe-Lys*3-PyrS2-3Thi-BztA-GlnR*3-Ala-NH2], for which the IC50 in experiment [1] is below 50 nM; in experiment [2], above 10 µM.
The corresponding values for `CC(=O)N1CCC[C@]12CC=CCCCC1(CCCC=CCCCOC(=O)N3CC[C@@]4(C3)NC(=O)[C@H](CCCCNC(=O)CC[C@@H](C(=O)N[C@@H](C)C(N)=O)NC(=O)[C@H](Cc3ccc(Cl)c(Cl)c3)NC(=O)[C@H](Cc3ccccc3Cl)NC4=O)NC(=O)[C@H](Cc3ccccc3)NC(=O)[C@H](C)NC(=O)C(C)(C)NC(=O)[C@H](Cc3cccc(C(=O)O)c3)NC(=O)[C@H](CC(=O)O)NC1=O)NC(=O)[C@H](CC(C)(C)C)NC(=O)[C@H](CC(=O)O)NC2=O` (relative stereo) [I-472, Ac-PL3-Asp-Npg-B5-Asp-3COOHF-Aib-Ala-Phe-Lys*3-PyrS2-2ClF-34ClF-GlnR*3-Ala-NH2] are below 50 nM and 1.5 to 3 µM.
The matching figures for `CC(=O)N1CCC[C@]12CC=CCCCC1(CCCC=CCCCOC(=O)N3CC[C@@]4(C3)NC(=O)[C@H](CCCCNC(=O)CC[C@@H](C(=O)N[C@@H](C)C(N)=O)NC(=O)[C@H](Cc3ccc(Cl)c(Cl)c3)NC(=O)[C@H](Cc3ccccc3)NC4=O)NC(=O)[C@H](Cc3ccc(O)cc3)NC(=O)[C@H](C)NC(=O)C(C)(C)NC(=O)[C@H](Cc3cccc(C(=O)O)c3)NC(=O)[C@H](CC(=O)O)NC1=O)NC(=O)[C@H](CC(C)(C)C)NC(=O)[C@H](CC(=O)O)NC2=O` (relative stereo) [I-477, Ac-PL3-Asp-Npg-B5-Asp-3COOHF-Aib-Ala-Tyr-Lys*3-PyrS2-Phe-34ClF-GlnR*3-Ala-NH2]: below 50 nM and 3 to 10 µM.
The corresponding values for `CC(=O)N1CCC[C@]12CC=CCCCC1(CCCC=CCCCOC(=O)N3CC[C@@]4(C3)NC(=O)[C@H](CCCCNC(=O)CC[C@@H](C(=O)N[C@@H](C)C(N)=O)NC(=O)[C@H](Cc3ccc(Cl)c(Cl)c3)NC(=O)[C@H](Cc3ccccc3)NC4=O)NC(=O)[C@H](Cc3ccsc3)NC(=O)[C@H](C)NC(=O)C(C)(C)NC(=O)[C@H](Cc3cccc(C(=O)O)c3)NC(=O)[C@H](CC(=O)O)NC1=O)NC(=O)[C@H](CC(C)(C)C)NC(=O)[C@H](CC(=O)O)NC2=O` (relative stereo) [I-478, Ac-PL3-Asp-Npg-B5-Asp-3COOHF-Aib-Ala-3Thi-Lys*3-PyrS2-Phe-34ClF-GlnR*3-Ala-NH2] are below 50 nM and 1.5 to 3 µM.
